Test results: PMC5925453 (EBioMedicine, 2018)

Test system: EGFR downstream signal transduction pathways
Assay: Western blotting, gefitinib with TPX-0005, PC9 cell line
Details: PC9 cells; gefitinib 0.05 μM; 24 h

## COc1cc2ncnc(Nc3ccc(F)c(Cl)c3)c2cc1OCCCN1CCOCC1 [Gefitinib]
  EGFR, ERK1/2 and AKT phosphorylation: suppressed
